We go through 85 compounds from PubChem BioAssay AID651957 (The Scripps Research Institute Molecular Screening Center, 2012).

Protein sequences, listed by entry. Tags and fused reporters are not part of them.
UniProt Q15596, whole entry: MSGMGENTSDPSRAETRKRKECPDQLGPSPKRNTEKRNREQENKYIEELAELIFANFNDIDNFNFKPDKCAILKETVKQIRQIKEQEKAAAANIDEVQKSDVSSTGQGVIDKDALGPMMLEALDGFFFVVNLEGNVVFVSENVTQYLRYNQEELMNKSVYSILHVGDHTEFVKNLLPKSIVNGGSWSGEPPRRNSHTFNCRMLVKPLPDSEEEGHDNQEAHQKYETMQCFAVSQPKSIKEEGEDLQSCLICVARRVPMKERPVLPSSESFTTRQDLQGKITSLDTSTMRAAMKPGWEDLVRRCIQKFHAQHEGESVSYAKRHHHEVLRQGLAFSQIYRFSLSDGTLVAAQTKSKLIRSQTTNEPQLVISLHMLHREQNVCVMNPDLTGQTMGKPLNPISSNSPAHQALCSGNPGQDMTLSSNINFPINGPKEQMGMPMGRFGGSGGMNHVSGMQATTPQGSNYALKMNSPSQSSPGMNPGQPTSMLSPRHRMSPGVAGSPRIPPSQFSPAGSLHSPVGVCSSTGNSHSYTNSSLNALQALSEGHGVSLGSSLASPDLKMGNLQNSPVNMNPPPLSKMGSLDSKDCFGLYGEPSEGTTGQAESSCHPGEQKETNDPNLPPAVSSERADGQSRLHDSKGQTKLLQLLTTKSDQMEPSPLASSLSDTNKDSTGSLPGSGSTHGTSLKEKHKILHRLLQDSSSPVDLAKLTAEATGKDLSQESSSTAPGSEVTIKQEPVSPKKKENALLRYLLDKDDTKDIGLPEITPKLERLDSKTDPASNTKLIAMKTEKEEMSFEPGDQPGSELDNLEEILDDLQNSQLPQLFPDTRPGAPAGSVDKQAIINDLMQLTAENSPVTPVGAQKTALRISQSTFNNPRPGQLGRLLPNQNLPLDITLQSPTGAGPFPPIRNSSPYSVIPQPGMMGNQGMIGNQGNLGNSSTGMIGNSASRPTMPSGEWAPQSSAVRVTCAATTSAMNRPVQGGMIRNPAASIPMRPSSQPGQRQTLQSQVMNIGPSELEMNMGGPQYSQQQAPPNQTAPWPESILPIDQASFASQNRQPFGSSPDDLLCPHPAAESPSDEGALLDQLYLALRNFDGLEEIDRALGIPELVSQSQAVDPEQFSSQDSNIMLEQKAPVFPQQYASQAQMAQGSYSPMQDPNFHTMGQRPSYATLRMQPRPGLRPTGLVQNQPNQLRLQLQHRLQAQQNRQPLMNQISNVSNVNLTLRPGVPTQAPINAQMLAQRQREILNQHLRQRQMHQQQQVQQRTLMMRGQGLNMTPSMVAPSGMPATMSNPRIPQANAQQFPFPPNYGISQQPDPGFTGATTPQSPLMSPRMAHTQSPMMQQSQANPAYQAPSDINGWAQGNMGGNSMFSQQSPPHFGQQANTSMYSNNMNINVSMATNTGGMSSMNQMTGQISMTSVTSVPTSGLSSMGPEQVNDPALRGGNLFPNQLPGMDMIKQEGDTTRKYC

Only a part is listed here, and it is no random draw. Activity calls are given as the source filed them.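 Rule for the calls: active = inhibition above the mean inhibition of all tested compounds plus 3 SD, set per campaign (cut at about 52% in these data); inactive = the rest.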

The experiment addresses Nuclear receptor coactivator 2 (Homo sapiens) (UniProt Q15596). Briefly: inhibition of GAL4-SRC2 driven luciferase reporter, primary screen, SRC2 inhibitor project, cell-based, luminescence (AID 651957).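 Note: 0% = DMSO treated cells and 100% = cells given Gossypol at 36 µM.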 The note with it: HEK293 GAL4-SRC2 luciferase reporter, at 9 µM, hits give high values. (In general: Reporter assays use an easily measured gene product as a stand-in for the process of interest.)
The term inhibition denotes the relative decrease from the control value, in per cent. With `COc1cc(OC)cc(C(=O)NCC2(N3CCOCC3)CCCCC2)c1`, the inhibition is inactive: 12%. The result for `CN1CCC(Nc2ccc(Cl)cc2)CC1` reads inactive: -17%.

With `CN1CCC(Nc2ccc(F)c(Cl)c2)CC1`, the inhibition is inactive: -1.37%.

For `CCOc1ncccc1C(=O)NCC1(N2CCOCC2)CCCCC1`, the inhibition is inactive: 2.26%. In the case of `CCCOc1ccc(C(=O)NCC2(N(C)C)CCCCC2)cc1`, the inhibition is inactive: -12.2%. On to `O=c1[nH]c2ccccc2n1C1CCN(C(c2cc3ccccc3o2)c2nnnn2C2CCCC2)CC1` (stereo not given), for which the inhibition is inactive: -44.5%. On to `NN(c1ccccc1)C1CCN(CCc2ccccc2)CC1`, for which the inhibition is inactive: 4.28%. With `O=C(O)C1(Nc2ccccc2)CCN(Cc2ccccc2)CC1`, the inhibition is inactive: 3.3%. On to `CC(C)(C)OC(=O)N1CCC(Nc2ccccc2)CC1`, for which the inhibition is inactive: 32%. The result for `CC(C)(C)n1nnnc1C(c1ccnc2ccccc12)N1CCC(n2c(=O)[nH]c3ccccc32)CC1` (stereo not given) reads inactive: -11.6%. Turning to `CCN1CCC(Nc2cccc(F)c2)CC1`, the inhibition was inactive: 6.94%. Turning to `COc1ccc(C(c2nnnn2C2CCCCC2)N2CCC(n3c(=O)[nH]c4ccccc43)CC2)cc1` (stereo not given), the inhibition is inactive: -17.5%. For `Cc1ccccc1NC1(C#N)CCN(Cc2ccccc2)CC1`, the inhibition is inactive: -17.6%. With `Cn1c(=O)[nH]cc(N(CCCl)CCCl)c1=O` the figure was inactive: -29.2%; with `CN(C)c1ccc(C(=O)NCC2(N3CCCCC3)CCCCC2)cc1`, inactive: -15.4%; with `O=C(NCC1(N2CCCCC2)CCCCC1)c1ccco1`, inactive: -11.4%.

Take `O=c1[nH]c2ccccc2n1C1CCN(C(c2ccnc3ccccc23)c2nnnn2C2CCCCC2)CC1` (stereo not given): the inhibition is inactive: -4.22%. With `COc1cc(OC)cc(C(=O)NCC2(N3CCCCC3)CCCCC2)c1` the figure was inactive: -35.9%. `CCC(c1nnnn1C1CCCCC1)N1CCC(n2c(=O)[nH]c3ccccc32)CC1` (stereo not given): the inhibition is inactive: 4.82%. For `CC(=O)N(c1ccccc1)C1CCNCC1`, the inhibition is inactive: -14.1%. With `COc1cccc(C(c2nnnn2C2CCCCC2)N2CCC(n3c(=O)[nH]c4ccccc43)CC2)c1OC` (stereo not given) the figure was inactive: 21.3%; with `Cc1ccc(NC2(C#N)CCN(Cc3ccccc3)CC2)cc1`, inactive: -0.53%. `Fc1ccccc1NC1CCN(Cc2ccccc2)CC1`: the inhibition was inactive: 11.8%.

With `Cc1ccc(C(=O)NCC2(N3CCCCC3)CCCCC2)o1`, the inhibition was inactive: -22.8%. On to `O=c1[nH]c2ccccc2n1C1CCN(C(c2ccccc2)c2nnnn2C2CCCCC2)CC1` (stereo not given), for which the inhibition was inactive: -9.72%. On to `O=c1[nH]c2ccccc2n1C1CCN(C(c2cccc3ccccc23)c2nnnn2C2CCCC2)CC1` (stereo not given), for which the inhibition was inactive: -22.8%. The result for `COc1cc(C(=O)NCC2(N(C)C)CCCCC2)ccc1OC(F)F` reads inactive: 7.32%.

Consider `CCOC(=O)N1CCC(Nc2cccc(C)c2)CC1`, for which the inhibition was inactive: 11.3%. For `CCOc1ccc(C)cc1CN(CCCl)CCCl`, the inhibition is inactive: -12.2%. The result for `O=C1CCN(Cc2ccccc2)CC1` reads inactive: -9.98%; that for `CC(C)(C)n1nnnc1C(c1ccccc1)N1CCC(n2c(=O)[nH]c3ccccc32)CC1` (stereo not given), inactive: 13.6%; that for `CCOC(=O)N1CCC(Nc2ccc(F)cc2)CC1`, inactive: -4.21%. On to `COc1ccc(NC2CCN(CCc3ccccc3)CC2)c(OC)c1`, for which the inhibition was inactive: -28.3%. Consider `O=C(NCC1(N2CCCCC2)CCCCC1)c1ccc(F)cc1`, for which the inhibition is inactive: -2.78%. Regarding `CCCCOc1ccc(C(=O)NCC2(N3CCOCC3)CCCCC2)cc1`, the inhibition was inactive: -20.1%. Take `O=P1(N(CCCl)CCCl)SCCCS1`: the inhibition is inactive: -1.84%.

In the case of `CCCCn1nnnc1C(c1cc2ccccc2o1)N1CCC(n2c(=O)[nH]c3ccccc32)CC1` (stereo not given), the inhibition is inactive: -2.78%.

Regarding `O=C(NCC1(N2CCOCC2)CCCCC1)c1cc2ccccc2o1`, the inhibition is inactive: -17.4%. For `Cc1cc(C)cc(N(C(=O)c2ccccc2)C2CCN(C(=O)OC(C)(C)C)CC2)c1`, the inhibition is inactive: -2.95%. The result for `O=c1[nH]c2ccccc2n1C1CCN(C(c2ccccc2OC(F)(F)F)c2nnnn2C2CCCCC2)CC1` (stereo not given) reads inactive: -5.73%; that for `O=C(NCC1(N2CCCCC2)CCCCC1)c1ccc(Cl)nc1`, inactive: -13.7%; that for `CCCCn1nnnc1C(c1ccc(OC)cc1)N1CCC(n2c(=O)[nH]c3ccccc32)CC1` (stereo not given), inactive: 1.46%.

On to `CCOC(=O)N1CCC(Nc2ccc(OC)cc2)CC1`, for which the inhibition is inactive: -18.5%.

`COc1ccc(Cl)cc1C(=O)NCC1(N2CCOCC2)CCCCC1`: the inhibition was inactive: 12.4%. Consider `O=c1[nH]c2ccccc2n1C1CCN(C(c2cc3ccccc3o2)c2nnnn2C2CCCCC2)CC1` (stereo not given), for which the inhibition was inactive: -32.9%. Consider `O=C(OC1CN2CCC1CC2)C1c2ccccc2Oc2ccccc21` (stereo not given), for which the inhibition was inactive: -27.2%.

`N#CC1(Nc2ccccc2)CCN(Cc2ccccc2)CC1`: the inhibition was inactive: -5.15%. Consider `O=C(NCC1(N2CCCCC2)CCCCC1)c1ccc(Cl)s1`, for which the inhibition is inactive: -0.6%.

For `CCCCn1nnnc1C(c1cccs1)N1CCC(n2c(=O)[nH]c3ccccc32)CC1` (stereo not given), the inhibition is inactive: 27.8%.

On to `O=C(NCC1(N2CCCCC2)CCCCC1)c1cccs1`, for which the inhibition was inactive: -1.15%. Regarding `CCCCn1nnnc1C(CC)N1CCC(n2c(=O)[nH]c3ccccc32)CC1` (stereo not given), the inhibition is inactive: 11.3%.

For the compound `O=C(NCC1(N2CCCCC2)CCCCC1)c1ccc(=O)[nH]c1`, the inhibition was inactive: -18.9%. With `CCC(c1nnnn1C1CCCC1)N1CCC(n2c(=O)[nH]c3ccccc32)CC1` (stereo not given) the figure was inactive: -1.1%; with `CC(C)(C)OC(=O)N1CCC(N(C(=O)c2ccccc2)c2ccc(F)cc2)CC1`, inactive: 0.23%. With `COc1ccc(C(=O)NCC2(N3CCCCC3)CCCCC2)c(OC)c1OC` the figure was inactive: -3.67%; with `COc1ccc(C(=O)NCC2(N3CCCCC3)CCCCC2)cc1`, inactive: 6.15%.

In the case of `Cc1cccc(NC2(C#N)CCN(Cc3ccccc3)CC2)c1`, the inhibition is inactive: -2.42%.

As for `CSc1ccccc1C(=O)NCC1(N2CCCCC2)CCCCC1`, the inhibition was inactive: 14.8%.

For the compound `O=C(NCC1(N2CCCCC2)CCCCC1)c1cncc(Br)c1`, the inhibition was inactive: -18.1%. As to `CN1CCC(Nc2cccc(F)c2)CC1`, the inhibition is inactive: -1.52%. On to `CCCOc1ccc(C(=O)NCC2(N(C)C)CCCCC2)cc1OC`, for which the inhibition was inactive: 13.7%. In the case of `Cc1ccc(C(=O)NCC2(N(C)C)CCCCC2)o1`, the inhibition was inactive: -2.58%. With `COc1ccc(C(c2nnnn2C2CCCC2)N2CCC(n3c(=O)[nH]c4ccccc43)CC2)cc1` (stereo not given) the figure was inactive: -31.5%; with `CN(C)c1cccc(C(=O)NCC2(N3CCCCC3)CCCCC2)c1`, inactive: -31.9%; with `COC(=O)C1(Nc2ccccc2)CCN(Cc2ccccc2)CC1`, inactive: -20.4%. On to `COc1ccc(CN(CCCl)CCCl)cc1Cl`, for which the inhibition was inactive: 24.2%.

On to `CC(C)c1ccc(NC2CCN(C(=O)OC(C)(C)C)CC2)cc1`, for which the inhibition was inactive: -12.9%. The result for `CCCCn1nnnc1C(c1ccnc2ccccc12)N1CCC(n2c(=O)[nH]c3ccccc32)CC1` (stereo not given) reads inactive: -18.2%; that for `CCC(c1nnnn1C(C)(C)C)N1CCC(n2c(=O)[nH]c3ccccc32)CC1` (stereo not given), inactive: 0.5%. With `O=C(NCC1(N2CCOCC2)CCCCC1)c1cc(F)c(F)cc1Cl` the figure was inactive: -13.9%; with `COc1cc(OC)c(C(=O)NCC2(N(C)C)CCCCC2)cc1OC`, inactive: -13.1%. The result for `O=C(NCC1(N2CCCCC2)CCCCC1)c1cccc(C(F)(F)F)c1` reads inactive: -25.8%; that for `CCCCn1nnnc1C(c1cccc2ccccc12)N1CCC(n2c(=O)[nH]c3ccccc32)CC1` (stereo not given), inactive: 1.32%. On to `CC(C)c1ccc(C(=O)NCC2(N3CCOCC3)CCCCC2)cc1`, for which the inhibition was inactive: -13.1%. On to `COc1ccc(NC2CCN(C(=O)OC(C)(C)C)CC2)cc1`, for which the inhibition is inactive: -16.8%. Turning to `CN1CCN(CCOC(=O)C(O)(c2ccccc2)c2ccccc2)CC1`, the inhibition is inactive: -3.24%.

As to `O=C(NCC1(N2CCOCC2)CCCCC1)c1cc(=O)[nH]c2ccccc12`, the inhibition was inactive: -22.7%. For `COc1cc(C(=O)NCC2(N3CCCCC3)CCCCC2)ccc1OC(F)F`, the inhibition is inactive: -35%. Regarding `O=C(NCC1(N2CCCCC2)CCCCC1)c1ccc(OC(F)F)cc1`, the inhibition was inactive: 1.46%. With `CC(C)(C)n1nnnc1C(c1ccccc1OC(F)(F)F)N1CCC(n2c(=O)[nH]c3ccccc32)CC1` (stereo not given) the figure was inactive: 3.24%; with `CSc1ccc(C(=O)NCC2(N3CCOCC3)CCCCC2)cc1`, inactive: -41%. On to `O=C(NCC1(N2CCCCC2)CCCCC1)c1cccc([N+](=O)[O-])c1`, for which the inhibition is inactive: -19.6%. As to `N#CC1(Nc2ccccc2)CCN(CCc2ccccc2)CC1`, the inhibition is inactive: -14.8%. For `O=c1[nH]c2ccccc2n1C1CCN(C(c2ccccc2OC(F)(F)F)c2nnnn2C2CCCC2)CC1` (stereo not given), the inhibition is inactive: 9.63%. For the compound `CCN1CCC(Nc2ccc(Cl)cc2)CC1`, the inhibition is inactive: 1.7%.
